Measurements reported in PubChem BioAssay AID1745845 (National Center for Advancing Translational Sciences (NCATS), 2022).
Several values for one entry are separate records, joined by “and”; a condition that tells them apart may be missing. Equal entries are not always repeated. Only a part is listed here, and it is no random draw. Some tests of the compounds listed are not included; inactive here does not mean inactive elsewhere. Records with an inconclusive call do not appear. Activity calls are given as the source filed them. The call rests on the fitted dose curve; in most records, active means well fitted inhibition curve with a large enough effect; inconclusive means small, poorly fitted or top-dose-only effect; inactive means no such curve, though single readings can be large or run the other way.

assay: Primary qHTS for Inhibitors of ATXN expression; conditions: HEK-293 ATXN2-luciferase reporter, luminescence, 24 h; at 57 µM (top of the series); further: nearly all actives have a fitted effect of over 55% in size
On the % scale 0 is the no-effect control and ±100 the full control effect.

Row | Structure (SMILES) | activity change, negative = inhibition
1 | CN(C)C1(CNC(=O)c2ccccc2F)CCCCC1 | inactive: 0.0814%
2 | Cc1ccc(C(=O)NCC2(N3CCCCC3)CCCCC2)cc1 | inactive: -17.1%
3 | CC(C)N1C(=O)CC2(CCN(CCOC(=O)C(O)(c3ccccc3)c3ccccc3)CC2)C1=O | inactive: 2.68%
4 | CN(C)C1(CNC(=O)c2cccc(Cl)c2)CCCCC1 | inactive: -4.85%
5 | CCN(CC)CC(C)C(C)OC(=O)C(O)(c1ccccc1)c1ccccc1 (stereo unspecified) | inactive: -0.557%
6 | COc1cc(SC)ccc1C(=O)NCC1(N(C)C)CCCCC1 | inactive: 1.5%
7 | O=C(NCC1(N2CCCCC2)CCCCC1)c1cc([N+](=O)[O-])ccc1Cl | inactive: 10.8%
8 | CCN1CCCC(OC(=O)C2(O)c3ccccc3C=Cc3ccccc32)C1 (stereo unspecified) | inactive: -12.1%
9 | Cc1cc(C(=O)NCC2(N3CCCCC3)CCCCC2)ccc1[N+](=O)[O-] | inactive: 20.5%
10 | O=C(NCC1(N2CCCCC2)CCCCC1)c1cccc(Br)c1 | inactive: -5.23%
11 | COc1ccc(C(=O)NCC2(N(C)C)CCCCC2)cc1 | inactive: 3.6%
12 | CCOc1cccc(C(=O)NCC2(N(C)C)CCCCC2)c1 | inactive: -6.87%
13 | O=C(NCC1(N2CCCCC2)CCCCC1)c1cc(F)c(F)cc1Cl | inactive: 2.13%
14 | CCCCOc1ccccc1C(=O)NCC1(N(C)C)CCCCC1 | inactive: -14.3%
15 | CN(C)C1(CNC(=O)c2ccccc2[N+](=O)[O-])CCCCC1 | inactive: 2.15%
16 | CN(C)c1ccc(C(=O)NCC2(N(C)C)CCCCC2)cc1 | inactive: 7.02%

Row | Structure (SMILES) | activity change, negative = inhibition
17 | CN(C)C1CCCC1OC(=O)C(O)(c1ccccc1)c1ccccc1 (stereo unspecified) | inactive: 0.687%
18 | O=C(NCC1(N2CCCCC2)CCCCC1)c1cccc(Cl)c1 | inactive: -1.32%
19 | COc1ccc(C(=O)NCC2(N(C)C)CCCCC2)cc1Cl | inactive: -6.28%
20 | COc1cccc(C(=O)NCC2(N3CCCCC3)CCCCC2)c1 | inactive: 5.8%
21 | COc1ccc(Cl)cc1C(=O)NCC1(N(C)C)CCCCC1 | inactive: -6.44%
22 | CN(C)C1(CNC(=O)c2ccc(Br)cc2)CCCCC1 | inactive: -18.9%
23 | CN(C)c1cccc(C(=O)NCC2(N(C)C)CCCCC2)c1 | inactive: -2.27%
24 | CC(C)Oc1ccc(C(=O)NCC2(N(C)C)CCCCC2)cc1 | inactive: 3.96% and inactive: 5.65%
25 | O=C(OCCN1CCCC1)C(O)(c1ccccc1)c1ccccc1 | inactive: 18.7%
26 | COc1cc(C(=O)NCC2(N(C)C)CCCCC2)cc(OC)c1OC | inactive: 7.55%
27 | Cc1cccc(C(=O)NCC2(N(C)C)CCCCC2)c1 | inactive: 5.04%
28 | COc1ccc(Br)c(C(=O)NCC2(N3CCCCC3)CCCCC2)c1 | inactive: -2.18%
29 | CC(C)COc1ccc(C(=O)NCC2(N(C)C)CCCCC2)cc1 | inactive: -28.8%
30 | O=C(OC1CN2CCC1CC2)C(CO)(c1ccccc1)c1ccccc1 (stereo unspecified) | inactive: -8.48%
31 | COc1cccc(C(=O)NCC2(N3CCOCC3)CCCCC2)c1 | inactive: 11.2%
